# AlphaSeq binding of Ab-14 light chain variants to a spike HR2 peptide

Source: Li et al. 2023 (doi:10.1038/s41467-023-39022-2), MIT Lincoln Laboratory and A-Alpha Bio; data file from the FLAb repository.

Antigen: PDVDLGDISGINAS, a 14-residue peptide of the SARS-CoV-2 spike HR2 region.

Parent: Ab-14, a human scFv built as VH, a 15-residue (Gly4Ser)3 linker, VL. Only the CDRs of the light chain vary.
VH: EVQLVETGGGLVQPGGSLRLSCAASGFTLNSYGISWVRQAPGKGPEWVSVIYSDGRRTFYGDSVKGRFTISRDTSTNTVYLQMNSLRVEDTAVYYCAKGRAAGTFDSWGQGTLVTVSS
VL: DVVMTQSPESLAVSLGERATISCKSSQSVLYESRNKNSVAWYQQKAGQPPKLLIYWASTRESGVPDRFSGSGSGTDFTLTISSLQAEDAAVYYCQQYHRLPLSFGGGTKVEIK

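The parent was found by panning a naive human phage display library on the peptide. These sequences belong to a second round, designed from the earlier measurements on random variants of the parent. Several design methods are mixed in this list. In AlphaSeq, yeast of one mating type display the scFv and yeast of the other type display the target. Binding brings cells together so that they mate, and sequencing counts the barcode pairs among the diploids. A regression on co-assayed BCL2-family reference pairs converts the normalised counts of each replicate to an apparent Kd. Mating was done six times.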

Sequences are complete VL domains. The Kd shown is the geometric mean over detected replicates; a lower Kd is a better binder. Where no diploid with the target was found in any replicate, the entry reads "not detected": below detection, most likely a poor binder, though not proof of it. The range of this assay differs from that of the first round, and the authors advise against merging the two.

| VL | Kd (apparent) | seen in |
|---|---|---|
| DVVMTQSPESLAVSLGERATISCKWRQSVDGESRNKNSVAWYQQKAGQPPKLLIYQASQREQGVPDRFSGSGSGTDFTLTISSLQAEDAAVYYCQQYHRLPLSFGGGTKVEIK | 1.6 nM | 6/6 |
| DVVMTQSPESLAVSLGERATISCKLSQSHLYESRNKNAVAWYQQKAGQPPKLLIYEASTRESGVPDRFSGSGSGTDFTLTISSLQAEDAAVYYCQQYHRLPLSFGGGTKVEIK | 670 pM | 6/6 |
| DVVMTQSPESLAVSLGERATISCKCSQEVLFESRNKNSVAWYQQKAGQPPKLLIYDASTRESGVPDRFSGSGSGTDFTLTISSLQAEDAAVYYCQQYHRLPLSFGGGTKVEIK | 700 pM | 6/6 |
| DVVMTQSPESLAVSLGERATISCHLSQSVLYESRMKNSVAWYQQKAGQPPKLLIYNASTRESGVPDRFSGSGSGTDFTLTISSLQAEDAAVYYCQQYHRLPLSFGGGTKVEIK | 830 pM | 6/6 |
| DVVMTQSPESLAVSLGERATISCKVSQSQLYESRNKNSVAWYQQKAGQPPKLLIYNASLRESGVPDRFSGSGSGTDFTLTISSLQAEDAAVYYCQQYHRLPLSFGGGTKVEIK | 670 pM | 6/6 |
| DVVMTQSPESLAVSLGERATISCKSSISYLYESRNKNNVAWYQQKAGQPPKLLIYAASTRESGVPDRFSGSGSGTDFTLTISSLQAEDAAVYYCQQYHRLPLSFGGGTKVEIK | 2.1 nM | 6/6 |
| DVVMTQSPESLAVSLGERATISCVFSGQWDGNTTENSAVAWYQQKAGQPPKLLIYNVDERMLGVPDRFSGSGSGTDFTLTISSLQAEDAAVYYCQQYNRLPLMFGGGTKVEIK | 32 nM | 6/6 |
| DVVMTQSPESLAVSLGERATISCKVSQSVLFEWRNKNSVAWYQQKAGQPPKLLIYDASTRESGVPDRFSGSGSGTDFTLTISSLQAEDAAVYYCQQYHRLPLSFGGGTKVEIK | 930 pM | 6/6 |
| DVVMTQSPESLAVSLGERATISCTISQLHNMGTFAINSVAWYQQKAGQPPKLLIYQASIRNSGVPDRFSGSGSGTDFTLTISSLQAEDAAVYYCQQYDRLPLIFGGGTKVEIK | 4.5 nM | 6/6 |

Further variants, results first:

| Kd (apparent) | seen in | VL |
|---|---|---|
| 180 nM | 2/6 | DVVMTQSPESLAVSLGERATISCNLDKADYESRQMINNIAWYQQKAGQPPKLLIYDMSTLMAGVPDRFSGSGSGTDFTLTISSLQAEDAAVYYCQQYASLPLDFGGGTKVEIK |
| 280 nM | 2/6 | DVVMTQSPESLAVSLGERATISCKSSQPVLGESSNKNSVAWYQQKAGQPPKLLIYTCSTRESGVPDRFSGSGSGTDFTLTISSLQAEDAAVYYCQQYHRLPLSFGGGTKVEIK |
| 2.7 nM | 6/6 | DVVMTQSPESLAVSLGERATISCKLSQSDEYESRQFNSVAWYQQKAGQPPKLLIYNASTRMQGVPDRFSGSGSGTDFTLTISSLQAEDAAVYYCQQYHRLPLSFGGGTKVEIK |
| 660 pM | 6/6 | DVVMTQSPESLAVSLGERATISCKFSQSMLYESRNKNSVAWYQQKAGQPPKLLIYNASQRESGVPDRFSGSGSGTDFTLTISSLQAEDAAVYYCQQYHRLPLSFGGGTKVEIK |
| not detected | 0/6 | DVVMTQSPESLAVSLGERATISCSLRQSTLYESRNKNSYAWYQQKAGQPPKLLIYWASTAESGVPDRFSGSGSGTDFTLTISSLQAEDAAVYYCQQYFRLPLSFGGGTKVEIK |
| not detected | 0/6 | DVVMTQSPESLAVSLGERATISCKLKTMPGEIPKEGNSIAWYQQKAGQPPKLLIYHAEARTPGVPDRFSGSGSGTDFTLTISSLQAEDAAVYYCQQYHRLPLIFGGGTKVEIK |
| 3.2 nM | 6/6 | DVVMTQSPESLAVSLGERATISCKLQQSVLYESRQKNSVAWYQQKAGQPPKLLIYNASTRLSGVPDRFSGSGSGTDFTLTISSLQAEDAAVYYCQQYHRLPLSFGGGTKVEIK |
| 1.1 nM | 6/6 | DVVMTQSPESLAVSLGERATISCFLSQSVLYESRNKNSVAWYQQKAGQPPKLLIYHASTRESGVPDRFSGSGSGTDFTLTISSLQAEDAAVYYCQQYHRLPLSFGGGTKVEIK |
| 1.0 nM | 6/6 | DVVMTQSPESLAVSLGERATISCQINHQGLSAALNNRNVAWYQQKAGQPPKLLIYAKNLRVDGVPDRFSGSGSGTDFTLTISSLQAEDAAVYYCQQYNRLPLSFGGGTKVEIK |

Repeated from above, the 2 best binders with a signal in all replicates:

| VL | Kd (apparent) | seen in |
|---|---|---|
| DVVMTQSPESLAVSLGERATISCKFSQSMLYESRNKNSVAWYQQKAGQPPKLLIYNASQRESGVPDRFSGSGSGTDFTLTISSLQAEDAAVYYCQQYHRLPLSFGGGTKVEIK | 660 pM | 6/6 |
| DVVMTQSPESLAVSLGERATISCKLSQSHLYESRNKNAVAWYQQKAGQPPKLLIYEASTRESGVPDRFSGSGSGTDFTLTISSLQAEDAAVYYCQQYHRLPLSFGGGTKVEIK | 670 pM | 6/6 |

Background: pairings of all light chain designs with three empty control strains gave a value in 4% of cases (median 430 nM, 5th percentile 38 nM). Values in that range, when seen in few replicates, are hard to tell from nonspecific mating. The authors averaged sequences with at least three values out of six and counted those with two or fewer as poor binders.